The numbers were not newly measured in US8071368B2, “Methods for promoting growth and survival of insulin-secreting cells” (Alizé Pharma SAS, priority 2001, dated 2011), which cites them from elsewhere.

Protein sequences, listed by entry. Tags and fused reporters are not part of them.
UniProt Q92847, whole entry: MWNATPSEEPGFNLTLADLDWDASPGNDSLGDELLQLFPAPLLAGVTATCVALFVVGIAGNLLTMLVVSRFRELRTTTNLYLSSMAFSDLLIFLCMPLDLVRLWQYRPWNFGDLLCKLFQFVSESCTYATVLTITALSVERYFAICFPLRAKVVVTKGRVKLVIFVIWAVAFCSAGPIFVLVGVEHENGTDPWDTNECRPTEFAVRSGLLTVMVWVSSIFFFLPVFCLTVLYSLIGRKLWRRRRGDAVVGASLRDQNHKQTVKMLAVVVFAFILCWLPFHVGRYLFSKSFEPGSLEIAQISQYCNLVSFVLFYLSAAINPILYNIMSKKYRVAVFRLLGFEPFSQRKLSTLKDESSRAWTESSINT

Where only a bound is given, the exact number is not on record here.

The target in data set [1] is T1, GHS-R1a (Homo sapiens, UniProt Q92847). As to conditions: cited from earlier work.
Data set [2] deals with T1, GHS-R1a. Particulars: literature statement; cited from earlier work.

In the case of “NH2Gly-Ser-Ser-Phe-Leu-Ser-Pro-Glu-His-Gln-Arg-Val-Gln-Gln-Arg-Lys-Glu-Ser-Lys-Lys-Pro-Pro-Ala-Lys-Leu-Gln-Pro-Arg (GSSFLSPEHQRVQQRKESKKPPAKLQPR; synthetic polypeptide unacylated ghrelin)”, in the data set with GHS-R1a [1] (Bednarek et al. 2000), the IC50 (commonly the concentration needed to halve the response being measured) is above 10 µM. The “affinity to GHS-R1a” value in the data set with GHS-R1a [1] (literature statement) was “no affinity”. As to “des Gln-14 Ghrelin: 27 amino acid peptide possessing serine 3 modification by n-octanoic acid (GSSFLSPEHQRVQRKESKKPPAKLQPR; Ser3 n-octanoyl; synthetic polypeptide unacylated ghrelin)”, the “activation of GHS-R1a” value in the data set with GHS-R1a [2] is recorded as “elicits Ca^2+ fluxes in cloned cells”.
